Results reported in patent EP4831169A1, “NOVEL COMPOUND USED AS CBP/P300 INHIBITOR, AND PHARMACEUTICAL COMPOSITION FOR PREVENTING OR TREATING CANCER, INFLAMMATORY DISORDERS, OR AUTOIMMUNE DISEASES COMPRISING SAME AS ACTIVE INGREDIENT” (dated 2026).

Amino acid sequences for entries named in this document (tags omitted). Residues count along the entry.
UniProt Q92793, 1085-1192 limits assumed: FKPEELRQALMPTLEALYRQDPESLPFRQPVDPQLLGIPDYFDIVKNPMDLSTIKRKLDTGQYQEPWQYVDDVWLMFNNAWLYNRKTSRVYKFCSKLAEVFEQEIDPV

What was measured:
CBP BRD protein = CBP BRD protein (Homo sapiens, UniProt Q92793); assay: CBP bromodomain TR-FRET inhibitory activity assay; details: read-out: CBP BRD IC50, Table 3
Procedure: A time resolved fluorescence resonance energy transfer (TR-FRET) experiment was used to verify the activity of CBP bromodomain.
The assay was performed in a final volume of 14 µL, optimized based on a CREBBP time resolved fluorescence resonance energy transfer (TR-FRET) assay kit (BPS Bioscience, cat. 32619) to maximize an assay window, and performed in a final volume of 14 µL, while maximizing the assay window. A TR-FRET fluorescence acceptor and a Tb donor were diluted in an assay buffer containing 2-[4-(2-hydroxyethyl)piperazin-1-yl]ethanesulfonic acid (HEPES) (hereafter, referred to as an assay buffer, BPS Bioscience, cat. 33012), and 3 µL of each solution was transferred to all wells of a white 384-low-volume well plate (Corning, cat. 4513). 2 µL of 4X Ac-H4 peptide (final concentration 85 nM) was transferred to high control wells and test wells. Each compound was prepared at 10 concentration points by serially diluting 3-fold from the highest concentration in a dimethyl sulfoxide solvent. The compound at each concentration was then diluted in the assay buffer to prepare a diluted compound solution that was 4-fold more concentrated than the final concentration. 2 µL of each compound or dimethyl sulfoxide prepared in this way was distributed into an assay plate so that the final test concentration was a minimum of 0.5 µM to a maximum of 10 µM (final dimethyl sulfoxide concentration 1%). 6 µL of 1X assay buffer was added to low control wells and 2 µl was added to high control and test wells. Then, 2 µL of 4X CBP BRD protein (final concentration 7.5 nM, BPS bioscience, cat 31128) was added to initiate a PPI reaction. The plate was reacted at room temperature for 2 hours before measuring the signal. The TR-FRET signal was measured using an EnVision Multilabel plate reader (PerkinElmer; Mirror LNACE/DELFIA Dual/Bias). For data analysis, the values of each well were obtained using a TR-FRET ratio ((Signal 665 nm/Signal 615 nm)×20000). Data analysis was performed using the TR-FRET ratio ((Signal 665 nm/Signal 615 nm)×20000). Data were reported as percent inhibition compared to control wells based on the following equation: %Activity = ((FRETcompound - FRETLow av)/(FRETHigh av - FRETLow av))×100. IC50 analysis was determined by standard 4 parameter curve fitting according to an algorithm using GraphPad Prism 7.0 (GraphPad Software Inc., La Jolla, CA, USA). All data are expressed as mean ± standard error of the mean (SEM).

BRD4 (BD1) protein = BRD4 (BD1) protein (Homo sapiens, UniProt O60885); assay: BRD4 bromodomain TR-FRET inhibitory activity assay; details: read-out: BRD4 (BD1) IC50, Table 4
Procedure: BRD inhibitory activity was measured using a time resolved fluorescence resonance energy transfer (TR-FRET) experiment to verify the activity of BRD4 bromodomain.
The assay was performed in a final volume of 14 µL, optimized based on a CREBBP time resolved fluorescence resonance energy transfer (TR-FRET) assay kit (BPS Bioscience, cat. 32613) to maximize an assay window, and performed in a final volume of 14 µL, while maximizing the assay window. A TR-FRET fluorescence acceptor and a Tb donor were diluted in an assay buffer containing 2-[4-(2-hydroxyethyl)piperazin-1-yl]ethanesulfonic acid (HEPES) (hereafter, referred to as an assay buffer, BPS Bioscience, cat. 33012), and 3 µL of each solution was transferred to all wells of a white 384-low-volume well plate (Corning, cat. 4513). 2 µL of 4X Ac-H4 peptide (final concentration 15 nM) was transferred to high control wells and test wells. Each compound was prepared at 10 concentration points by serially diluting 3-fold from the highest concentration in a dimethyl sulfoxide (DMSO) solvent. The compound at each concentration was then diluted in the assay buffer to prepare a diluted compound solution that was 4-fold more concentrated than the final concentration. 2 µL of each compound or dimethyl sulfoxide prepared in this way was distributed into an assay plate so that the final test concentration was a minimum of 0.5 µM to a maximum of 10 µM (final DMSO concentration 1%). 6 µL of 1X assay buffer was added to low control wells and 2 µL was added to high control and test wells. Then, 2 µL of 4X BRD4 (BD1) protein (final concentration 7.5 nM, BPS bioscience, cat 31040) was added to initiate a PPI reaction. The plate was reacted at room temperature for 2 hours before measuring the signal. The TR-FRET signal was measured using an EnVision Multilabel plate reader (PerkinElmer; Mirror LNACE/DELFIA Dual/Bias). For data analysis, the values of each well were obtained using the TR-FRET ratio ((Signal 665 nm/Signal 615 nm)×20000). Data analysis was performed using the TR-FRET ratio ((Signal 665 nm/Signal 615 nm)×20000). Data were reported as percent inhibition compared to control wells based on the following equation: %Activity = ((FRETcompound - FRETLow av)/(FRETHigh av - FRETLow av))×100. IC50 analysis was determined by standard 4 parameter curve fitting according to an algorithm using GraphPad Prism 7.0 (GraphPad Software Inc., La Jolla, CA, USA). All data are expressed as mean ± standard error of the mean (SEM).

| Compound | pIC50 (CBP BRD protein) | pIC50 (BRD4 (BD1) protein) |
| --- | --- | --- |
| Cn1cc(-c2cc3nc(-c4cncn4C)n(-c4cc(C5CCOCC5)c5c(c4)n(C)c(=O)n5C)c3cc2F)c(C(F)(F)F)n1 | 5.30 to 6.30 | < 5.30 |
| Cc1ncc(-c2cc3nc(C(C)(C)C)n(-c4cc(N5CC(C)(O)C5)c5c(c4)n(C)c(=O)n5C)c3cc2OC(F)(F)F)s1 | > 6.30 | < 5.30 |
| Cn1cc(-c2cc3nc(-c4cncn4C)n(-c4cc(NC5CCCCC5)c5c(c4)n(C)c(=O)n5C)c3cc2F)cn1 | > 6.30 | < 5.30 |
| CC(=O)Oc1cc2c(cc1-c1cnn(C)c1)nc(C(C)(C)C)n2-c1cc(N2CC(C)(O)C2)c2c(c1)n(C)c(=O)n2C | > 6.30 | < 5.30 |
| Cn1cc(-c2cc3nc(-c4cncn4C)n(-c4cc(NC5COC5)c5c(c4)n(C)c(=O)n5C)c3cc2F)cn1 | > 6.30 | < 5.30 |
| COC1(C)CN(c2cc(-n3c(-c4cncn4C)nc4cc(-c5cnn(C)c5)c(C(F)F)cc43)cc3c2n(C)c(=O)n3C)C1 | > 6.30 | 5.30 to 6.30 |
| Cn1cc(-c2cc3nc(C(C)(C)C)n(-c4cc(N5CCNCC5)c5c(c4)n(C)c(=O)n5C)c3cc2C(F)F)cn1 | > 6.30 | < 5.30 |
| CC(=O)Nc1cc2c(cc1-c1cnn(C)c1)nc(C(C)(C)C)n2-c1cc(N2CCOCC2)c2c(c1)n(C)c(=O)n2C | < 5.30 | < 5.30 |
| Cc1ncc(-c2cc3nc(C(C)(C)C)n(-c4cc(N5CC(C)(O)C5)c5c(c4)n(C)c(=O)n5C)c3cc2C(F)F)s1 | > 6.30 | 5.30 to 6.30 |
| Cn1cc(-c2cc3nc(-c4cncn4C)n(-c4cc(NCCC(F)(F)F)c5c(c4)n(C)c(=O)n5C)c3cc2F)cn1 | > 6.30 | < 5.30 |
| Cn1cc(-c2cc3nc(C(C)(C)C)n(-c4cc(N5CCOCC5)c5c(c4)n(C)c(=O)n5C)c3cc2CF)cn1 | > 6.30 | < 5.30 |
| Cn1cc(-c2cc3nc(-c4cncn4C)n(-c4ccc5c(c4)n(C)c(=O)n5C)c3cc2F)cn1 | > 6.30 | < 5.30 |
| Cn1cc(-c2cc3nc(C(C)(C)C)n(-c4cc(N5CCOCC5)c5c(c4)n(C)c(=O)n5C)c3cc2C#N)cn1 | > 6.30 | < 5.30 |
| Cn1cc(-c2cc3nc(C(C)(C)C)n(-c4cc(O)c5c(c4)n(C)c(=O)n5C)c3cc2C(F)F)cn1 | > 6.30 | < 5.30 |
| CC(C)=Cc1cc(-n2c(-c3cncn3C)nc3cc(-c4cnn(C)c4)c(F)cc32)cc2c1n(C)c(=O)n2C | > 6.30 | < 5.30 |
| Cn1c(=O)n(C)c2c(N3CCOCC3)cc(-n3c(C(C)(C)C)nc4cc(C(=O)O)c(F)cc43)cc21 | 5.30 to 6.30 | < 5.30 |
| Cn1cncc1-c1nc2cc(-c3cnn(C(F)F)c3)c(F)cc2n1-c1cc(N2CCOCC2)c2c(c1)n(C)c(=O)n2C | > 6.30 | < 5.30 |
| Cn1cc(-c2cc3nc(-c4cncn4C)n(-c4cc(NCC5CC5)c5c(c4)n(C)c(=O)n5C)c3cc2F)cn1 | > 6.30 | < 5.30 |
| Cn1cc(-c2cc3nc(-c4cncn4C)n(-c4cc(N5CCOCC5)c5c(c4)n(C)c(=O)n5C)c3cn2)cn1 | > 6.30 | < 5.30 |
| Cn1cc(-c2cc3nc(C(C)(C)C)n(-c4cc(N5CC(O)(C(F)(F)F)C5)c5c(c4)n(C)c(=O)n5C)c3cc2C(F)F)cn1 | > 6.30 | < 5.30 |

pIC50: −log10 of the molar value.
